The numbers were not newly measured in patent publication US20160058751A1, “COMPOSITION AND METHOD FOR TREATING CANCER” (CELLWORKS GROUP, INC., priority 2013, published 2016), which cites them from elsewhere.

Protein sequences, listed by entry. Tags and fused reporters are not part of them. Residues count along the entry.
UniProt P35918, 20-1345: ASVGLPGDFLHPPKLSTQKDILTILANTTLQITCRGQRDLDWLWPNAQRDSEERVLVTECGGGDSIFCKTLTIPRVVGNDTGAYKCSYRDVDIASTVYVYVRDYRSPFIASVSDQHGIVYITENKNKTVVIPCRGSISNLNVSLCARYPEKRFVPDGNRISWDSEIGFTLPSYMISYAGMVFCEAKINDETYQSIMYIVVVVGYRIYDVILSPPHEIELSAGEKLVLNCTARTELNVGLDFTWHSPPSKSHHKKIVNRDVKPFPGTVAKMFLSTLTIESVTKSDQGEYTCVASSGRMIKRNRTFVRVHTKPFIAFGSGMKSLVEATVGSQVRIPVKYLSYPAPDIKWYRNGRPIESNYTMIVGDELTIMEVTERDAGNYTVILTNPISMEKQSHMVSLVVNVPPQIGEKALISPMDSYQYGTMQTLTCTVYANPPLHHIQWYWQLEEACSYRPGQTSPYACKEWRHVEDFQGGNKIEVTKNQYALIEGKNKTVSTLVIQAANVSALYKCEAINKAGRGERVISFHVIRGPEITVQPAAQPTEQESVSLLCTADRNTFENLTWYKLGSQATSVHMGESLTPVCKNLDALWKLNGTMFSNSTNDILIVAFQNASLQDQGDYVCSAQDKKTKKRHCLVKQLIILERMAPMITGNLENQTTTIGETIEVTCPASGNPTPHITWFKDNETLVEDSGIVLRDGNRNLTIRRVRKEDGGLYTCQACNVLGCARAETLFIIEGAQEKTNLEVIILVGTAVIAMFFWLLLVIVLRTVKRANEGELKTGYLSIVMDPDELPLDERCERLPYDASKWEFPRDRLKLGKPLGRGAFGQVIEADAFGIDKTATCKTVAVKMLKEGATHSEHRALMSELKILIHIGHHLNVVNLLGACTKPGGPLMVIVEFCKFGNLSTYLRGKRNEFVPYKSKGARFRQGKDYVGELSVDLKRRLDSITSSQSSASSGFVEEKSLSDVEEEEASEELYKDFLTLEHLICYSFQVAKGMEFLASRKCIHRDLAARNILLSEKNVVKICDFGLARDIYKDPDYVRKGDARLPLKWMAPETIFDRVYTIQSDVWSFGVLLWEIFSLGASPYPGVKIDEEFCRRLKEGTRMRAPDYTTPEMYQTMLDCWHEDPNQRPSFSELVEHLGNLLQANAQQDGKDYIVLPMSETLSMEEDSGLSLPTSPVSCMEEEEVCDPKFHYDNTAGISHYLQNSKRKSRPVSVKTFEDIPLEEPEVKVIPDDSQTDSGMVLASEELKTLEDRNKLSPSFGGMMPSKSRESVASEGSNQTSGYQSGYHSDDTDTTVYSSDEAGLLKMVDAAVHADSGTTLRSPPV

Molecules are shown by their SMILES.

A word on the IC50: it is the concentration at which inhibition is half-maximal.

The target in this series is mVEGFR-2 (flk-1) (Mus musculus, UniProt P35918). To be noted: biochemical assay; cited from earlier work.

For `CNC(=O)c1cc(Oc2ccc(NC(=O)Nc3ccc(Cl)c(C(F)(F)F)c3)cc2)ccn1` [Sorafenib, 4-[4-[[4-chloro-3-(trifluoromethyl)phenyl]carbamoylamino]phenoxy]-N-methylpyridine-2-carboxamide], the half-inhibitory concentration (IC50) is 15 nM.
